{"source": "patent US3989835A", "about": "“Method of using 6-substituted amino phenyl-2,3,5,6-tetra-hydro[2,1-b]thiazoles for controlling gastrointestinal nematodes” (American Cyanamid Company, priority 1974, dated 1976)", "key": {"in vivo [1]": {"assay": "in vivo", "settings": "for Dead/Total: mice", "source_text": "Data on the acute oral toxicity to mice of various single oral doses of the above compounds and several analogs were obtained by conventional procedures, (Table IX hereinafter)."}, "in vivo [2]": {"assay": "in vivo", "settings": "for MTD: dog, Maximum Non-Lethal Dose for Dog", "method": "Dogs infected with mature adult whipworms Trichuris vulpis were treated with various single or double doses of unsubstituted or substituted tetramisole analogs by the oral or subcutaneous route (Table XI hereinafter). Whipworms passed in the feces were collected for several days, and the whipworms still present determined at necropsy. Percent efficacy was determined in these \"critical\" tests. […] Trichuris is a type of nematode refactory to treatment with most prior anthelmintics at well tolerated doses. Taxonomically allied nematodes, e.g., Trichinella and Capillaria are also refractory to most anthelmintics."}}}
{"smiles": "c1ccc(C2CN3CCSC3=N2)cc1", "note": "(racemic) [dl-tetramisole, dl-6-phenyl-2,3,5,6-tetrahydroimidazo[2,1-b]thiazole, reference compound]", "values": [{"measurement": "Approx. LD50 /ED50", "setting": "in vivo [1]; chemotherapeutic index, mouse oral, N. dubius, Table IX", "result": 19}, {"measurement": "LD50", "setting": "in vivo [1]; mouse, in vivo, po, Approx. LD50", "result": 175, "unit": "mg/kg"}, {"measurement": "Dead/Total", "setting": "in vivo [1]; single oral dose 100 Mg./Kg.", "result": "1/10"}, {"measurement": "Dead/Total", "setting": "in vivo [1]; single oral dose 150 Mg./Kg.", "result": "8/30"}, {"measurement": "Dead/Total", "setting": "in vivo [1]; single oral dose 200 Mg./Kg.", "result": "15/20"}, {"measurement": "Dead/Total", "setting": "in vivo [1]; single oral dose 300 Mg./Kg.", "result": "10/10"}, {"measurement": "MTD", "setting": "in vivo [2]; po", "result": "> 20", "unit": "mg/kg"}, {"measurement": "MTD", "setting": "in vivo [2]; sc", "result": 25, "unit": "mg/kg"}]}
{"smiles": "c1ccc(C2CN3CCSC3=N2)cc1", "note": "(stereo not drawn) [l H, l-6-phenyl-2,3,5,6,-tetrahydroimidazo[2,1-b]thiazole, reference compound]", "values": [{"measurement": "Maximum Non-Lethal Dose for Dog, SC", "setting": "in vivo [2]; sc", "result": 30, "unit": "Mg./Kg."}]}
